From article PMC2949283 (The Biochemical journal, 2009)

Amino acid sequences for entries named in this document (tags omitted). Residues count along the entry.
UniProt P06276, 29-602: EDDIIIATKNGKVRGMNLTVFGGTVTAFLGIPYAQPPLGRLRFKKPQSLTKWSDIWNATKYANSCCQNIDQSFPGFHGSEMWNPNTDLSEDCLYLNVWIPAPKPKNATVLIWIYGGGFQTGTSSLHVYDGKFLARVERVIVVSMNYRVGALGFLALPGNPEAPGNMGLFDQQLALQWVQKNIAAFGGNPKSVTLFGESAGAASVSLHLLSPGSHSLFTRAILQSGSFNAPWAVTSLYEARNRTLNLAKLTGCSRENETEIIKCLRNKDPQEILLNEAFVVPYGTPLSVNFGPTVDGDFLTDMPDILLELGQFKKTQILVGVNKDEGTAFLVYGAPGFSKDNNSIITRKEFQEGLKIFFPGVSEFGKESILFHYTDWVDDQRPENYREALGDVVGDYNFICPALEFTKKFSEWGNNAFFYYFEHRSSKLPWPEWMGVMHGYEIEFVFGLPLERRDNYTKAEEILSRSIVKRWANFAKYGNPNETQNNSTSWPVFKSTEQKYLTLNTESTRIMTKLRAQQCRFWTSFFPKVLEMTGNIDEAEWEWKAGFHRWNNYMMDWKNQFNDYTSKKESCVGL

Target: HuBChE-Wild Type (Homo sapiens, UniProt P06276)
Assay: HuBChE inhibition kinetics
Assay type: biochemical

For `CCN(C)C(=O)Oc1cccc([C@H](C)N(C)C)c1` [Rivastigmine, rivastigmine], the Kd was 3.8 ± 0.1 µM.
